# Values of other authors as cited in paper PMC12053642, “Oral PRI-002 treatment in patients with MCI or mild AD: a randomized, double-blind phase 1b trial” (Nature Communications, 2025).
# System: early AD patients
# Details: over 18 months, on average; cited from earlier work
# From the text: After two decades of setbacks, the United States Food and Drug Administration (USFDA) full approvals for lecanemab[1] and donanemab[2] presents the beginning of a new decade for AD patients with several more drug candidates holding promise for marketing authorisation in the foreseeable future.
substance,measurement,value
"aducanumab: anti-amyloid therapeutic antibody, targets Aβ oligomers and Aβ plaques [reference compound]",deceleration of progression measured by CDR-SB versus placebo,up to 36%
